scFv variants of Ab-14 (heavy chain) against a SARS-CoV-2 spike peptide

Source: Engelhart et al. 2022 (doi:10.1038/s41597-022-01779-4), MIT Lincoln Laboratory and A-Alpha Bio; data file from the FLAb repository.

Antigen: PDVDLGDISGINAS, a 14-residue peptide of the SARS-CoV-2 spike HR2 region.

Each scFv is VH, a 15-residue (Gly4Ser)3 linker, VL, as in the parent Ab-14, and differs from it in the CDRs of the heavy chain only.
VH: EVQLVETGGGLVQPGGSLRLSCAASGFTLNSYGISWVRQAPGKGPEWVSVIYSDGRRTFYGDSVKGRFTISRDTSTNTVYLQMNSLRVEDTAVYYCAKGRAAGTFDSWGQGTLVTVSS
VL: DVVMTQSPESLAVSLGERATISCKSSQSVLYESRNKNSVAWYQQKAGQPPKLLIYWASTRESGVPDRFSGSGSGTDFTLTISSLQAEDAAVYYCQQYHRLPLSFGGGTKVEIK

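The starting antibody came from a phage panning campaign against this peptide. AAYL49 was designed without a model: most single CDR substitutions and a random sample of double and triple ones. The scFvs were displayed on barcoded MATa yeast, the peptide on MATalpha yeast. Mating (16 h, 30 °C) was followed by selection of diploids and sequencing of their barcodes. The ratio of observed to expected reads was calibrated, replicate by replicate, on BCL2-family standards whose Kd was known from biolayer interferometry. Each pool was mated in three replicate cultures.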

Variants are written as CDR1, CDR2 and CDR3 of the heavy chain (limits as in the source). Parent: GFTLNSYGIS, VIYSDGRRTFYGDSVK, GRAAGTFDS.
Affinities are written as log10 Kd with Kd in nM; a lower number is a better binder.
An entry "n.d." has no value in the source: the pair was not observed among the diploids in that replicate. This suggests poor binding but is not conclusive.
For reference, the parent read 0.65 as the reference entry and 4.11 (one replicate of three) as a member of this library.
Nonspecific signal, from three strains lacking the peptide, appeared in 15% of pairings of library AAYL49, centred on 4.06 (5% of these signals below 2.83); values are not corrected for it. The control count says in how many pairings with the empty strains this scFv gave a signal, with their mean in brackets.

| CDR-H1 | CDR-H2 | CDR-H3 | log10 Kd, replicates | empty controls |
|---|---|---|---|---|
| GFLLNSYGHS | VIYSDGRRTFYGDSVA | GRAAGTFDS | n.d. / n.d. / 6.17 | 1/9 (4.50) |
| GFTLNSYGIS | VIYCDGRPTFYGDSVK | GRPAGTFDS | n.d. / n.d. / n.d. | 1/9 (1.82) |
| QFTLNSYGIS | VIYSDGRRSFYGDSVK | GRAAGTFIS | n.d. / n.d. / n.d. | 0/9 |
| VFHLNSYGIS | VIYQDGRRTFYGDSVK | GRAAGTFDS | n.d. / n.d. / 3.37 | 3/9 (5.08) |
| GFTLQSMGIS | VIYSDGRRTFYGDSVK | GRAAGHFDS | 3.08 / n.d. / n.d. | 0/9 |
| GFTLNWYGIS | VIYSDGRSTFYGDSVK | GRAAGTFDS | 5.61 / n.d. / 5.52 | 5/9 (4.89) |
| GFTLNSYGIS | EIYGIGRRTFYGDSVK | GRAAGTFDS | n.d. / n.d. / n.d. | 1/9 (2.37) |
| GFTLNSYGIS | VNYSRGRRTFYGDSVK | WRAAGTFDS | 4.32 / 4.19 / 2.94 | 3/9 (2.88) |
| GFTLNSYGFS | VIYSDGRRTFYGMSVP | GRAAGTFDS | n.d. / n.d. / n.d. | 0/9 |
| GFTLNSYGIQ | VIYSDGRRTFYGDYVK | GRAIGTFDS | n.d. / n.d. / 3.62 | 0/9 |
| GFTANSYGIS | VIYGDGRRTFYVDSVK | GRAAGTFDS | 2.86 / 2.33 / 2.89 | 2/9 (2.92) |
| HFTLNEYGIS | VMYSDGRRTFYGDSVK | GRAAGTFDS | 2.06 / 1.97 / 2.18 | 6/9 (3.91) |
| GFTLNSYGIS | GIYSDGRRTFYGDSVK | GRAAGTQYS | n.d. / n.d. / n.d. | 1/9 (5.40) |
| GFTLNSYGGS | VIYSIPRRTFYGDSVK | GRAAGTFDS | n.d. / n.d. / n.d. | 0/9 |
| PFTLNDYGIS | VIYSDGRRTFYGDSVK | ERAAGTFDS | n.d. / n.d. / n.d. | 1/9 (5.18) |
| MFTLNSYGIS | VIYSDGHRTFYGDSMK | GRAAGTFDS | 3.80 / n.d. / 5.71 | 2/9 (4.47) |
| FFTLNSYGIS | VIYSDGRRCFYGDSVK | GRAAGTFDH | n.d. / n.d. / n.d. | 0/9 |
| GFTLNSYGIS | VDWSDGRRTFYDDSVK | GRAAGTFDS | n.d. / n.d. / n.d. | 0/9 |
| GVTLNSYGIS | VIYWDGARTFYGDSVK | GRAAGTFDS | 5.30 / n.d. / n.d. | 3/9 (3.94) |
| GFTLNSYGIK | VIYIDGRRTFYGASVK | GRAAGTFDS | n.d. / n.d. / n.d. | 0/9 |
| GFMFNSYGIS | VIYSPGRRTFYGDSVK | GRAAGTFDS | n.d. / n.d. / n.d. | 0/9 |
| GFTLNSYGIS | PIYDDIRRTFYGDSVK | GRAAGTFDS | n.d. / n.d. / n.d. | 0/9 |
| GFTLNSYGIS | VIYTDGRRTFYGDSVK | GRAAGTFDS | 2.59 / 1.80 / n.d. | 0/9 |
| GFTLDSYGIS | VIYSDGRRTFYGDSVG | GRAAGTFDS | 1.97 / 2.15 / 1.98 | 2/9 (4.36) |
| GFTLNSYGIS | VIYSDGRRTFYGDSVK | GHAAGTFDI | 0.59 / 0.87 / 0.67 | 2/9 (4.91) |
| GFTLNCYGIS | VIYSDGRRTFYGDSVK | GRAAGTFDW | 4.08 / 3.83 / 5.22 | 6/9 (4.54) |
| GFTLNSYIIS | VIYSDGRRQFYGDSSK | GRAAGTFDS | 4.90 / n.d. / n.d. | 0/9 |
| GFTLNSYGIC | VIYSDLRRTFYGDSVK | GRAAGTFDS | n.d. / 3.48 / n.d. | 0/9 |
| GFTLNSYGIS | VIYSDARRTFYGDSVK | GPAAGTFDS | n.d. / 4.35 / n.d. | 1/9 (3.90) |
| GFTLNNYGIS | VIYSDQRRTFYGDSVK | GRAAGTFDR | n.d. / n.d. / n.d. | 0/9 |
| GFTLNSYNIS | VIYSDGRRTFYGDSVK | GRADGTFDW | n.d. / 3.36 / n.d. | 1/9 (3.10) |
| GFTHNSYGIS | VIYSDGRRTFYGDSVK | GRAAGTFLG | n.d. / n.d. / n.d. | 0/9 |
| GFTLNSYGIS | VIYSDGRLTFYGDSHK | GRAAGIFDS | n.d. / 3.56 / n.d. | 2/9 (4.32) |
| GFTLNFYGIS | VIYSDGRRMFIGDSVK | GRAAGTFDS | n.d. / 4.12 / n.d. | 2/9 (3.56) |
| GFTLNSYGIS | QIYSDGRRTFYGDSVK | GQATGTFDS | 5.89 / n.d. / n.d. | 2/9 (4.85) |
| GFTLNSCGIS | VIYSAGRRTFYGDSVK | GRAAGTFDE | n.d. / n.d. / 4.63 | 1/9 (2.53) |
| GFTLNQYGIS | VIYSDGRRTFLGHSVK | GRAAGTFDS | n.d. / 3.41 / n.d. | 4/9 (3.73) |
| GTTLNSYGII | VIYSDGRRTFYGDSVL | GRAAGTFDS | n.d. / n.d. / n.d. | 0/9 |
| GFTLLSYKIS | VIYSDGRRTFYGDSVK | GRAAPTFDS | n.d. / n.d. / n.d. | 1/9 (4.92) |
| TFTLNSYGIS | VIYSDGRRTFYGDSIK | GRRAGTFDS | n.d. / n.d. / n.d. | 0/9 |
| GFTLNSYGTS | VIYSDGRRTFAGDSWK | GRAAGTFDS | n.d. / n.d. / n.d. | 1/9 (3.27) |
| GFQLNSRGIS | VIYSDSRRTFYGDSVK | GRAAGTFDS | n.d. / n.d. / n.d. | 0/9 |
| GFVLNSYGIS | VEYSDGRRTFYGDSVK | GRAAGPFDS | n.d. / n.d. / n.d. | 0/9 |
| GFTLNSYNIS | VIYSDGRRTFYGDSVK | GRAAGTKDS | 6.13 / n.d. / n.d. | 2/9 (4.14) |

7 of these entries, quoted again:

| CDR-H1 | CDR-H2 | CDR-H3 | log10 Kd, replicates | empty controls |
|---|---|---|---|---|
| GFTLNSYNIS | VIYSDGRRTFYGDSVK | GRADGTFDW | n.d. / 3.36 / n.d. | 1/9 (3.10) |
| GFTLLSYKIS | VIYSDGRRTFYGDSVK | GRAAPTFDS | n.d. / n.d. / n.d. | 1/9 (4.92) |
| GFTLNSYGFS | VIYSDGRRTFYGMSVP | GRAAGTFDS | n.d. / n.d. / n.d. | 0/9 |
| MFTLNSYGIS | VIYSDGHRTFYGDSMK | GRAAGTFDS | 3.80 / n.d. / 5.71 | 2/9 (4.47) |
| TFTLNSYGIS | VIYSDGRRTFYGDSIK | GRRAGTFDS | n.d. / n.d. / n.d. | 0/9 |
| GFTLNSYGIQ | VIYSDGRRTFYGDYVK | GRAIGTFDS | n.d. / n.d. / 3.62 | 0/9 |
| GFTLNNYGIS | VIYSDQRRTFYGDSVK | GRAAGTFDR | n.d. / n.d. / n.d. | 0/9 |